Ab-14 light chain CDR variants: yeast mating affinities

From the AlphaSeq antibody data of Li et al. 2023 (doi:10.1038/s41467-023-39022-2), copy in the FLAb collection.

The target is the same throughout: PDVDLGDISGINAS, from the HR2 region of SARS-CoV-2 spike.

Parent: Ab-14, a human scFv built as VH, a (GGGGS)3 linker, VL. Only the CDRs of the light chain vary.
VH: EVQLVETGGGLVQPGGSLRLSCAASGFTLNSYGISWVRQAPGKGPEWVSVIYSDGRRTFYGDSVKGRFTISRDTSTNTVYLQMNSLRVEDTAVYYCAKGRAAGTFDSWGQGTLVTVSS
VL: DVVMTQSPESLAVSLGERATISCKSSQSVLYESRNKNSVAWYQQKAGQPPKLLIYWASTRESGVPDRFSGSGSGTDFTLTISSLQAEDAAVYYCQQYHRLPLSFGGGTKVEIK

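Phage display of a naive human antibody library on the peptide gave the parent. This is the validation round: designs drawn from the data on random variants, tested in the same kind of assay. Group labels follow the data file (Ctrl: baseline library sampled from a position-specific scoring matrix, with some repeated check sequences; Rand: our label for a block that the file lists under HC and that is probably the random mutants of the ten best first-round binders; GP: Gaussian process model; GPLM: also part of the Gaussian process libraries; HC: hill climbing; Gen: genetic algorithm; Gibbs: Gibbs sampling; a sequence that several methods proposed may carry one label only). AlphaSeq pools MATa yeast showing the antibodies with MATalpha yeast showing the peptide. Binding brings cells together so that they mate, and sequencing counts the barcode pairs among the diploids. Read counts were normalised to the haploid input and turned into Kd by a linear fit to BCL2-family pairs of known affinity, for each replicate. There are six technical replicates.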

Substitutions are numbered in sequence along the VL above, starting at 1 (not Kabat).
Variants here have at most six changes.
Scale: log10 of Kd in nM, estimated from mating counts; low values are strong binders.
Averages over replicates are reported, and they cover detected replicates only.
"nd" means that the variant was in the library but no mating with the target was seen in any replicate; the authors take this as a sign of poor binding, and no number exists.
Of ten entries with the parent sequence, four were seen in most replicates (averages 0.34 to 2.37), three in one and three in none, so single entries are noisy.

With S25L/S26L/W56H/S62D [GP_HC] the result was 0.13 (6 of 6 replicates).
With S25L/L30G/W56N/T59Q [GP_Gen] the result was -0.04 (6 of 6 replicates).
With S25M/H98D/S103I [Ctrl] the result was 1.10 (6 of 6 replicates).
With Y31D/N35D/W56N [Ctrl] the result was 0.24 (6 of 6 replicates).
With K24H/Q27P/L30A/W56N/E61C [GP_HC] the result was 0.21 (6 of 6 replicates).
With S25V/S33N/Q95D [Ctrl] the result was nd (0 of 6 replicates).
With S25Y/S26A/V29D/K36F/S38N/W56A [GP_Gibbs] the result was -0.11 (6 of 6 replicates).
With K24H/S25L/V29Q/W56N/T59Q [GP_Gen] the result was 0.36 (6 of 6 replicates).
With Q27R/Y31H/K36T/W56A [Ctrl] the result was 1.55 (6 of 6 replicates).
With S25L/S28G/Y31M/W56E/T59C/S62E [GP_Gibbs] the result was 1.60 (6 of 6 replicates).
With S26E/Q27L/V29K/N35D [Ctrl] the result was 1.21 (1 of 6 replicates).
With S25L/S26R/V29T/W56M/E61L [GP_HC] the result was 1.07 (6 of 6 replicates).
With S25L/V29W/E32D/S38N/W56N [GP_HC] the result was -0.35 (6 of 6 replicates).
With S25V/S28G/L30W/S62V [GP_Gibbs] the result was 1.69 (6 of 6 replicates).
With E32L/Y97Q [Ctrl] the result was 4.09 (1 of 6 replicates).
With K24L/Q27I/V29Y/R34P/W56E/S62L [GP_HC] the result was 0.69 (6 of 6 replicates).
With S26L/Q27A/V29W/W56H/S62Q [GP_HC] the result was 0.73 (6 of 6 replicates).
With S25L/W56E/E61M/Q96D [GP_Gen] the result was 0.09 (6 of 6 replicates).
With S25F/W56D/T59Q [GP_Gen] the result was -0.01 (6 of 6 replicates).
With S25L/V29D/S33Q/W56N [GP_Gen] the result was 0.17 (6 of 6 replicates).
With Q27G/S28P/N37A/W56Q/H98C [Ctrl] the result was 1.09 (6 of 6 replicates).
With S25I/S26G/Q27W/L30S [Ctrl] the result was 1.48 (6 of 6 replicates).
With S25V/V29H/W56N/E61M [GP_Gen] the result was -0.06 (6 of 6 replicates).
With S25Y/V29M/K36F/S38N/W56E [GP_Gibbs] the result was 0.90 (6 of 6 replicates).
With Q27E/V29Y/W56E [GPLM_HC] the result was -0.11 (6 of 6 replicates).
With S25L/Y31M/W56N/E61L [GP_Gen] the result was -0.53 (6 of 6 replicates).
With S25L/S38N/W56S/E61C [GP_Gen] the result was -0.39 (6 of 6 replicates).
With S28G/N35V/W56G [GP_HC] the result was 0.48 (6 of 6 replicates).
With L30C/S33V [Ctrl] the result was 2.04 (1 of 6 replicates).
With S25L/Y31N/W56D [GP_HC] the result was -0.22 (6 of 6 replicates).
With V39I/W56D [Ctrl] the result was 0.15 (6 of 6 replicates).
With L30I/E32G/K36A [Ctrl] the result was 2.58 (5 of 6 replicates).
With S28E/N35D/N37Y/W56R [Ctrl] the result was 1.55 (6 of 6 replicates).
With K24H/S25V/W56D [GP_HC] the result was -0.19 (6 of 6 replicates).
With S25L/S26M/V29M/W56N [GP_Gen] the result was -0.32 (6 of 6 replicates).
With S25I/Y31D/W56N [Ctrl] the result was 0.10 (6 of 6 replicates).
With S25L/S26R/V29T/K36P/W56Y [GP_HC] the result was 0.35 (6 of 6 replicates).
With S28L/W56G [GP_HC] the result was -0.34 (6 of 6 replicates).
With S25V/V29G/W56N [GP_Gen] the result was 0.44 (6 of 6 replicates).
With S25I/S26D/L30E/N35D/W56N/S62Q [GP_Gibbs] the result was 0.28 (6 of 6 replicates).
With K24H/S25L/V29Q/W56N/E61L/S62H [GP_Gibbs] the result was 0.05 (6 of 6 replicates).
With S33G/W56G [Ctrl] the result was 0.32 (6 of 6 replicates).
With S25L/S26Q/V29H/W56N [GP_Gen] the result was -0.05 (6 of 6 replicates).
With S25L/S28L/V29D/W56N [GP_Gen] the result was -0.28 (6 of 6 replicates).
With S25C/S28A/S33F/R34V/W56D [Rand] the result was 1.19 (6 of 6 replicates).
With V29D/K36F/W56G [GP_HC] the result was 0.22 (6 of 6 replicates).
With L30D/Y31N/N35W/W56D [GP_HC] the result was 0.35 (6 of 6 replicates).

The 2 strongest on average among those seen in every replicate, once more:

{"changes": "S25L/Y31M/W56N/E61L", "group": "GP_Gen", "mean, log10 nM": "-0.53", "detected": "6/6"}
{"changes": "S25L/S38N/W56S/E61C", "group": "GP_Gen", "mean, log10 nM": "-0.39", "detected": "6/6"}

Empty control strains, which show no peptide, gave a signal in 4% of pairings with all light chain designs; the median was 2.64 and 95% of these signals were weaker than 1.59. No background was subtracted.
The authors' rule: three or more of the six replicates give a measured affinity, fewer mean a poor binder.
The range of this assay differs from that of the first round, and the authors advise against merging the two.